Among the targets are VIM-2 (Escherichia coli, UniProt Q5U7L7); IMP-1 (Serratia marcescens, UniProt P52699); VIM-1 (Pseudomonas aeruginosa, UniProt A0A0F7KYQ8).
What all share (assay): biochemical
Another assay concerns the target NDM-1 (Klebsiella pneumoniae, UniProt C7C422). Conditions: NDM-1 IC50, 300 μM imipenem, 10 mM HEPES pH 7.5, 25 °C; average of at least two independent assays.

Usually IC50 stands for the midpoint of a concentration-inhibition curve. Low readings indicate greater potency in that assay, high ones weaker potency in that assay.

Some results are limits rather than exact numbers.

Take `O=C(O)c1cc2ccccc2cn1` [Compound 11]: the IC50 against VIM-2 is more than 200 µM; against IMP-1, more than 200 µM; against NDM-1, 19.4 µM; against VIM-1, more than 200 µM.

Values taken from PMC6332448, “SAR Studies Leading to the Identification of a Novel Series of Metallo-β-lactamase Inhibitors for the Treatment of Carbapenem-Resistant Enterobacteriaceae Infections That Display Efficacy in an Animal Infection Model” (ACS Infectious Diseases, 2018).
